In PMC11321638 (Advanced Science, 2024) one finds t1/2 with trypsin and t1/2 with chymotrypsin data, which are given here for one compound.

In one data set the test system is trypsin. The data set can be described thus: protease hydrolysis test, trypsin. Particulars: 1 mg/mL in PBS with calcium ions, 0.5 mg/ml protease, 0 min-24 h, residual peptide by HPLC; listed as RSI pep.
The next data set has as its system chymotrypsin. The data set can be described thus: protease hydrolysis test, chymotrypsin. Particulars: 1 mg/mL in PBS with calcium ions, 0.5 mg/ml protease, 0 min-24 h, residual peptide by HPLC; listed as RSI pep.

For the compound `CSCC[C@H](NC(=O)[C@H](CCC(=O)O)NC(=O)[C@H](CCC(=O)O)NC(=O)[C@H](CC(C)C)NC(=O)[C@H](C)NC(=O)[C@H](CC(N)=O)NC(=O)[C@H](CCCNC(=N)N)NC(=O)[C@H](CCSC)NC(=O)[C@H](Cc1ccccc1)NC(=O)[C@H](CCC(=O)O)NC(=O)[C@@H](N)CO)C(=O)N[C@@H](CC(C)C)C(=O)N[C@@H](CCCNC(=N)N)C(=O)N[C@@H](CCCNC(=N)N)C(=O)N[C@@H](C)C(N)=O` [RSIpep], the t1/2 with trypsin entry in the data set with trypsin was “less than 1 h”. The t1/2 with chymotrypsin result in the data set with chymotrypsin was “less than 1 h”.
